# Membrane permeability of cyclic peptides

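The data file gives no further conditions (lipid, pH, time, direction or concentration), and values from different papers need not be comparable. The list need not hold all peptides of the study. Entries at the database's floor value (log10 P of -10) are not listed.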

PAMPA measures passive passage through an artificial lipid membrane. P is given in units of 10^-6 cm/s (from log10 values with two decimals); larger means faster passage.

SMILES	PAMPA (10^-6 cm/s)
CC(C)C[C@@H]1NC(=O)[C@@H](C)N(C)C(=O)[C@H](Cc2ccccc2)NC(=O)CN(Cc2ccccc2)C(=O)[C@@H]2CCCN2C(=O)CN(Cc2ccccc2)C1=O	3.2
CC(C)C[C@@H]1NC(=O)[C@H]2CCCN2C(=O)CN(Cc2ccccc2)C(=O)[C@@H](CC(C)C)NC(=O)[C@@H](C)NC(=O)[C@H](Cc2ccccc2)NC1=O	0.18
CC(C)C[C@@H]1NC(=O)[C@H](C)NC(=O)[C@H]2CCCN2C(=O)[C@H](Cc2ccccc2)NC(=O)[C@H](CC(C)C)N(C)C(=O)[C@H]2CCCN2C(=O)CN(Cc2ccccc2)C1=O	0.76
CC(C)C[C@@H]1NC(=O)[C@H](CC(C)C)N(C)C(=O)[C@@H](C)NC(=O)[C@@H]2CCCN2C(=O)[C@H](Cc2ccccc2)NC(=O)[C@@H](CC(C)C)N(C)C(=O)[C@@H]2CCCN2C1=O	1.5
CC(C)C[C@@H]1NC(=O)[C@@H]2CCCN2C(=O)C[C@H](Cc2ccccc2)NC(=O)[C@H](CC(C)C)N(C)C(=O)C[C@H](Cc2ccccc2)NC(=O)[C@@H]2CCCN2C(=O)[C@H](Cc2ccccc2)NC1=O	2
CC(C)C[C@@H]1NC(=O)[C@@H]2CCCN2C(=O)CN(Cc2ccccc2)C(=O)[C@@H](CC(C)C)NC(=O)[C@@H](C)NC(=O)[C@H](Cc2ccccc2)NC1=O	0.62
CC(C)C[C@@H]1C(=O)N[C@H](CC(C)C)C(=O)N2CCC[C@H]2C(=O)N(Cc2ccccc2)CC(=O)N[C@@H](Cc2ccccc2)C(=O)N2CCC[C@H]2C(=O)N[C@@H](C)C(=O)N1C	0.93
CC(C)C[C@@H]1C(=O)N[C@H](CC(C)C)C(=O)N2CCC[C@@H]2C(=O)N[C@H](CC(C)C)C(=O)N[C@@H](Cc2ccccc2)C(=O)N[C@@H](Cc2ccccc2)CC(=O)N1C	1.2
CC(C)C[C@@H]1NC(=O)[C@@H]2CCCN2C(=O)[C@H](CC(C)C)NC(=O)[C@@H](CC(C)C)N(C)C(=O)[C@@H](C)N(C)C(=O)[C@H]2CCCN2C(=O)[C@H](Cc2ccccc2)NC1=O	2.8
CC(C)C[C@@H]1C(=O)N2CCC[C@@H]2C(=O)N(C)[C@@H](CC(C)C)C(=O)N[C@@H](Cc2ccccc2)C(=O)N[C@@H](Cc2ccccc2)CC(=O)N[C@H](CC(C)C)C(=O)N1C	7.9
CC(C)C[C@H]1NC(=O)[C@@H](C)N(C)C(=O)[C@H]2CCCN2C(=O)[C@H](Cc2ccccc2)NC(=O)[C@H](CC(C)C)N(C)C(=O)[C@H]2CCCN2C(=O)C[C@H](Cc2ccccc2)NC1=O	0.36
CC(C)C[C@@H]1NC(=O)[C@@H](C)NC(=O)[C@H]2CCCN2C(=O)[C@H](Cc2ccccc2)NC(=O)[C@@H](CC(C)C)N(C)C(=O)[C@H]2CCCN2C(=O)[C@H](CC(C)C)N(C)C1=O	1.8
CCCN1CC(=O)N(C)[C@H](CC(C)C)C(=O)N[C@@H](Cc2ccccc2)CC(=O)N2CCC[C@H]2C(=O)N(C)[C@@H](CC(C)C)C(=O)N[C@@H](Cc2ccccc2)C(=O)N2CCC[C@H]2C1=O	4.7
CC(C)C[C@@H]1NC(=O)[C@H](C)N(C)C(=O)[C@@H]2CCCN2C(=O)[C@H](Cc2ccccc2)NC(=O)[C@H](CC(C)C)N(C)C(=O)[C@H]2CCCN2C(=O)[C@H](CC(C)C)N(C)C1=O	6.2
CC(C)C[C@@H]1NC(=O)[C@H](C)N(C)C(=O)[C@H]2CCCN2C(=O)[C@H](Cc2ccccc2)NC(=O)[C@@H](CC(C)C)NC(=O)[C@@H]2CCCN2C(=O)C[C@H](Cc2ccccc2)NC1=O	0.56
CC(C)C[C@@H]1C(=O)N[C@@H](Cc2ccccc2)C(=O)N2CCC[C@H]2C(=O)N(C)[C@@H](C)C(=O)N(C)[C@@H](CC(C)C)C(=O)N[C@@H](Cc2ccccc2)CC(=O)N2CCC[C@H]2C(=O)N1C	1.8
CC(C)C[C@@H]1NC(=O)[C@@H]2CCCN2C(=O)[C@@H](CC(C)C)N(C)C(=O)[C@H](CC(C)C)N(C)C(=O)[C@H](C)NC(=O)[C@@H]2CCCN2C(=O)[C@H](Cc2ccccc2)NC1=O	0.81
CC(C)C[C@@H]1C(=O)N2CCC[C@@H]2C(=O)N[C@H](CC(C)C)C(=O)N[C@@H](Cc2ccccc2)C(=O)N(C)[C@H](C)C(=O)N(C)[C@@H](CC(C)C)C(=O)N1C	8.1
CC(C)C[C@H]1NC(=O)[C@@H]2CCCN2C(=O)CN(Cc2ccccc2)C(=O)[C@@H](CC(C)C)NC(=O)[C@@H](C)NC(=O)[C@H]2CCCN2C(=O)[C@H](Cc2ccccc2)NC1=O	0.045
CC(C)C[C@H]1NC(=O)[C@H](CC(C)C)N(C)C(=O)[C@H](C)NC(=O)[C@H]2CCCN2C(=O)[C@H](Cc2ccccc2)NC(=O)CN(Cc2ccccc2)C(=O)[C@@H]2CCCN2C1=O	2.5
CC(C)C[C@H]1NC(=O)[C@H](CC(C)C)N(C)C(=O)[C@H](C)N(C)C(=O)[C@@H]2CCCN2C(=O)[C@H](Cc2ccccc2)NC(=O)CN(Cc2ccccc2)C(=O)[C@@H]2CCCN2C1=O	1.3

2 of these entries, quoted again:

SMILES	PAMPA (10^-6 cm/s)
CC(C)C[C@@H]1NC(=O)[C@H](C)N(C)C(=O)[C@H]2CCCN2C(=O)[C@H](Cc2ccccc2)NC(=O)[C@@H](CC(C)C)NC(=O)[C@@H]2CCCN2C(=O)C[C@H](Cc2ccccc2)NC1=O	0.56
CC(C)C[C@@H]1C(=O)N[C@H](CC(C)C)C(=O)N2CCC[C@@H]2C(=O)N[C@H](CC(C)C)C(=O)N[C@@H](Cc2ccccc2)C(=O)N[C@@H](Cc2ccccc2)CC(=O)N1C	1.2

Source: CycPeptMPDB (Li et al. 2023), which took these values from Townsend et al. 2020, doi:10.26434/chemrxiv.13335941.v1.